The values below come from US20140100156A1 (SANOFI, priority 2012, published 2014).

Chains of the proteins cited; added tags and fusions are not shown. Residues count along the entry.
UniProt P43220, 24-463: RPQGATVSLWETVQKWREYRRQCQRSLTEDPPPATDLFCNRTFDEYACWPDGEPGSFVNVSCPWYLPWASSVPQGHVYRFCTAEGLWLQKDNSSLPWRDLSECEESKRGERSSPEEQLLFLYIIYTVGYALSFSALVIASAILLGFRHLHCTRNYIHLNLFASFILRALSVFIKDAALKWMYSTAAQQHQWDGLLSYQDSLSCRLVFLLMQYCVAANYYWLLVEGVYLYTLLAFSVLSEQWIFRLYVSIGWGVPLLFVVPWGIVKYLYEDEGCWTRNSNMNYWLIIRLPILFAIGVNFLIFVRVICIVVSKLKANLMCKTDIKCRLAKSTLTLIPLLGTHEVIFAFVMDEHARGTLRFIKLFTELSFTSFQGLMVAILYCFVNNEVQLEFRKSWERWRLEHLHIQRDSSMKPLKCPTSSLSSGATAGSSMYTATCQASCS
UniProt P47871, 26-477: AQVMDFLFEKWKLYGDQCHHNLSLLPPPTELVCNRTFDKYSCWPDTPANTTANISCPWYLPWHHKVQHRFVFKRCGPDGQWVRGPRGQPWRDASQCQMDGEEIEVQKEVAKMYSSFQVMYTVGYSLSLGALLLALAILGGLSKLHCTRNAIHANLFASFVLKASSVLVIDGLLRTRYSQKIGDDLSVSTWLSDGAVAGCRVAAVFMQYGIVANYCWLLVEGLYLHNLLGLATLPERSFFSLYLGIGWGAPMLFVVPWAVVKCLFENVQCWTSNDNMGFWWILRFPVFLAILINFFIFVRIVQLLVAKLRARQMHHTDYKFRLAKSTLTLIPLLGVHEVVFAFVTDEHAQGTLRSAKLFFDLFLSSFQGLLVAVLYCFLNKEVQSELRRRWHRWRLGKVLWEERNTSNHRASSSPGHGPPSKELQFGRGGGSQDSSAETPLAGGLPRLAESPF

For assay [1], the target named is T1, human GLP-1 receptor (Homo sapiens, UniProt P43220).
T1 construct: expressed in transfected cells; host or cells: HEK-293
In words: cAMP response (HTRF) of HEK-293 cells stably expressing human GLP-1 receptor. The assay is classed as cell-based. Particulars: read-out: EC50 hGLP-1R.

Assay [2] concerns the target T2, human glucagon receptor (Homo sapiens, UniProt P47871).
T2 construct: expressed in transfected cells; host or cells: HEK-293
Nature of the assay: cAMP response (HTRF) of HEK-293 cells stably expressing human glucagon receptor. The format is cell-based. Particulars: read-out: EC50 hGlucagon-R. On the technique in general: Time-resolved FRET reads energy transfer from a long-lived donor to a nearby acceptor.

Setting [3] is: Table 8, comparison testing of position 14.

Read-outs that look alike come from different tables or passages of the source.

As usually defined, the EC50 is the concentration at which the effect is half-maximal.

As for `CCCCCCCCCCCCCCCC(=O)N[C@@H](CCC(=O)NCCCC[C@H](NC(=O)[C@H](CCC(N)=O)NC(=O)[C@H](CCCCN)NC(=O)[C@H](CO)NC(=O)[C@H](CC(C)C)NC(=O)[C@H](CC(=O)O)NC(=O)[C@H](CO)NC(=O)[C@@H](NC(=O)[C@H](Cc1ccccc1)NC(=O)[C@@H](NC(=O)CNC(=O)[C@H](Cc1c[nH]cn1)NC(=O)[C@@H](CO)NC(=O)[C@@H](N)Cc1c[nH]cn1)[C@@H](C)O)[C@@H](C)O)C(=O)N[C@@H](CCC(=O)O)C(=O)N[C@@H](CO)C(=O)N[C@@H](CCCNC(=N)N)C(=O)N[C@@H](CCCNC(=N)N)C(=O)N[C@@H](C)C(=O)N[C@@H](CCC(N)=O)C(=O)N[C@@H](CC(=O)O)C(=O)N[C@@H](Cc1ccccc1)C(=O)N[C@H](C(=O)N[C@@H](CCC(=O)O)C(=O)N[C@@H](Cc1c[nH]c2ccccc12)C(=O)N[C@@H](CC(C)C)C(=O)N[C@@H](CCCCN)C(=O)N[C@@H](C)C(=O)NCC(=O)NCC(=O)N1CCC[C@H]1C(=O)N[C@@H](CO)C(=O)N[C@@H](CO)C(=O)NCC(=O)N[C@@H](C)C(=O)N1CCC[C@H]1C(=O)N1CCC[C@H]1C(=O)N1CCC[C@H]1C(=O)N[C@@H](CO)C(N)=O)[C@@H](C)CC)C(=O)O` [compound 73], the EC50 in assay [1] (Table 5, cAMP, HEK-293) amounted to 0.0041 nM; in assay [2] (Table 5, cAMP, HEK-293) it was 0.0017 nM.

For `CC[C@H](C)[C@H](NC(=O)[C@H](Cc1ccccc1)NC(=O)[C@H](CC(=O)O)NC(=O)[C@H](CCC(N)=O)NC(=O)[C@H](C)NC(=O)[C@H](CCCNC(=N)N)NC(=O)[C@H](CCCNC(=N)N)NC(=O)[C@H](CO)NC(=O)[C@H](CC(=O)O)NC(=O)[C@H](CCSC)NC(=O)[C@H](CCC(N)=O)NC(=O)[C@H](CCCCN)NC(=O)[C@H](CO)NC(=O)[C@H](CC(C)C)NC(=O)[C@H](CC(=O)O)NC(=O)[C@H](CO)NC(=O)[C@@H](NC(=O)[C@H](Cc1ccccc1)NC(=O)[C@@H](NC(=O)CNC(=O)[C@H](CCC(N)=O)NC(=O)[C@@H](CO)NC(=O)[C@@H](N)Cc1c[nH]cn1)[C@@H](C)O)[C@@H](C)O)C(=O)N[C@@H](CCC(=O)O)C(=O)N[C@@H](Cc1c[nH]c2ccccc12)C(=O)N[C@@H](CC(C)C)C(=O)N[C@@H](CCCCN)C(=O)N[C@@H](C)C(=O)NCC(=O)NCC(=O)N1CCC[C@H]1C(=O)N[C@@H](CO)C(=O)N[C@@H](CO)C(=O)NCC(=O)N[C@@H](C)C(=O)N1CCC[C@H]1C(=O)N1CCC[C@H]1C(=O)N1CCC[C@H]1C(=O)N[C@@H](CO)C(N)=O` [compound 188], the EC50 in assay [1] (setting [3]) was 0.0896 nM; in assay [2] (setting [3]) it was 0.186 nM.

For the compound `CC[C@H](C)[C@H](NC(=O)[C@H](Cc1ccccc1)NC(=O)[C@H](CC(=O)O)NC(=O)[C@H](CCC(N)=O)NC(=O)[C@H](C)NC(=O)[C@H](CCCNC(=N)N)NC(=O)[C@H](CCCNC(=N)N)NC(=O)[C@H](CO)NC(=O)[C@H](CCC(=O)O)NC(=O)[C@H](CCCCNC(C)=O)NC(=O)[C@H](CCC(N)=O)NC(=O)[C@H](CCCCN)NC(=O)[C@H](CO)NC(=O)[C@H](CC(C)C)NC(=O)[C@H](CC(=O)O)NC(=O)[C@H](CO)NC(=O)[C@@H](NC(=O)[C@H](Cc1ccccc1)NC(=O)[C@@H](NC(=O)CNC(=O)[C@H](CCC(N)=O)NC(=O)[C@@H](CO)NC(=O)[C@@H](N)Cc1c[nH]cn1)[C@@H](C)O)[C@@H](C)O)C(=O)N[C@@H](CCC(=O)O)C(=O)N[C@@H](Cc1c[nH]c2ccccc12)C(=O)N[C@@H](CC(C)C)C(=O)N[C@@H](CCCCN)C(=O)N[C@@H](C)C(=O)NCC(=O)NCC(=O)N1CCC[C@H]1C(=O)N[C@@H](CO)C(=O)N[C@@H](CO)C(=O)NCC(=O)N[C@@H](C)C(=O)N1CCC[C@H]1C(=O)N1CCC[C@H]1C(=O)N1CCC[C@H]1C(=O)N[C@@H](CO)C(N)=O` [compound 194], the values for the EC50 in assay [1] (setting [3]) and in assay [2] (setting [3]) were 0.159 nM and 1.29 nM, respectively.

For `CCCCCCCCCCCCCCCCCC(=O)N[C@@H](CCC(=O)NCCCC[C@H](NC(=O)[C@H](CCC(N)=O)NC(=O)[C@H](CCCCN)NC(=O)[C@H](CO)NC(=O)[C@H](CC(C)C)NC(=O)[C@H](CC(=O)O)NC(=O)[C@H](CO)NC(=O)[C@@H](NC(=O)[C@H](Cc1ccccc1)NC(=O)[C@@H](NC(=O)CNC(=O)[C@H](CCC(N)=O)NC(=O)[C@@H](CO)NC(=O)[C@@H](N)Cc1c[nH]cn1)[C@@H](C)O)[C@@H](C)O)C(=O)N[C@@H](CC(=O)O)C(=O)N[C@@H](CCC(=O)O)C(=O)N[C@@H](CCC(=O)O)C(=O)N[C@@H](C)C(=O)N[C@@H](C)C(=O)N[C@@H](CCCNC(=N)N)C(=O)N[C@@H](CC(C)C)C(=O)N[C@@H](Cc1ccccc1)C(=O)N[C@H](C(=O)N[C@@H](CCC(=O)O)C(=O)N[C@@H](Cc1c[nH]c2ccccc12)C(=O)N[C@@H](CC(C)C)C(=O)N[C@@H](CCCCN)C(=O)N[C@@H](C)C(=O)NCC(=O)NCC(=O)N1CCC[C@H]1C(=O)N[C@@H](CO)C(=O)N[C@@H](CO)C(=O)NCC(=O)N[C@@H](C)C(=O)N1CCC[C@H]1C(=O)N1CCC[C@H]1C(=O)N1CCC[C@H]1C(=O)N[C@@H](CO)C(N)=O)[C@@H](C)CC)C(=O)O` [compound 222], the EC50 in assay [1] (Table 5, cAMP, HEK-293) turned out to be 0.0018 nM; in assay [2] (Table 5, cAMP, HEK-293) it was 0.0029 nM.

Take `CCCCCCCCCCCCCCCC(=O)N[C@@H](CCC(=O)NCCCC[C@H](NC(=O)[C@H](CCC(N)=O)NC(=O)[C@H](CCCCN)NC(=O)[C@H](CO)NC(=O)[C@H](CC(C)C)NC(=O)[C@H](CC(=O)O)NC(=O)[C@H](CO)NC(=O)[C@@H](NC(=O)[C@H](Cc1ccccc1)NC(=O)[C@@H](NC(=O)CNC(=O)[C@H](CCC(N)=O)NC(=O)[C@@H](CO)NC(=O)[C@@H](N)Cc1c[nH]cn1)[C@@H](C)O)[C@@H](C)O)C(=O)N[C@@H](CCC(=O)O)C(=O)N[C@@H](CO)C(=O)NC(C)(C)C(=O)N[C@@H](C)C(=O)N[C@@H](C)C(=O)N[C@@H](CCC(N)=O)C(=O)N[C@@H](CC(C)C)C(=O)N[C@@H](Cc1ccccc1)C(=O)N[C@H](C(=O)N[C@@H](CCC(=O)O)C(=O)N[C@@H](Cc1c[nH]c2ccccc12)C(=O)N[C@@H](CC(C)C)C(=O)N[C@@H](CCCCN)C(=O)N[C@@H](C)C(=O)NCC(=O)NCC(=O)N1CCC[C@H]1C(=O)N[C@@H](CO)C(=O)N[C@@H](CO)C(=O)NCC(=O)N[C@@H](C)C(=O)N1CCC[C@H]1C(=O)N1CCC[C@H]1C(=O)N1CCC[C@H]1C(=O)N[C@@H](CO)C(N)=O)[C@@H](C)CC)C(=O)O` [compound 15]: the EC50 in assay [1] (Table 5, cAMP, HEK-293) came to 0.0066 nM; in assay [2] (Table 5, cAMP, HEK-293), 0.176 nM.

Consider `CCCCCCCCCCCCCCCC(=O)N[C@@H](CCC(=O)NCCCC[C@H](NC(=O)[C@H](CCC(N)=O)NC(=O)[C@H](CCCCN)NC(=O)[C@H](CO)NC(=O)[C@H](CC(C)C)NC(=O)[C@H](CC(=O)O)NC(=O)[C@H](CO)NC(=O)[C@@H](NC(=O)[C@H](Cc1ccccc1)NC(=O)[C@@H](NC(=O)CNC(=O)[C@H](CCC(N)=O)NC(=O)C(C)(C)NC(=O)[C@@H](N)Cc1c[nH]cn1)[C@@H](C)O)[C@@H](C)O)C(=O)N[C@@H](CC(=O)O)C(=O)N[C@@H](CO)C(=O)N[C@@H](CCC(N)=O)C(=O)N[C@@H](C)C(=O)N[C@@H](C)C(=O)N[C@@H](CCC(N)=O)C(=O)N[C@@H](CC(=O)O)C(=O)N[C@@H](Cc1ccccc1)C(=O)N[C@H](C(=O)N[C@@H](CCC(=O)O)C(=O)N[C@@H](Cc1c[nH]c2ccccc12)C(=O)N[C@@H](CC(C)C)C(=O)N[C@@H](CCCCN)C(=O)N[C@@H](C)C(=O)NCC(=O)NCC(=O)N1CCC[C@H]1C(=O)N[C@@H](CO)C(=O)N[C@@H](CO)C(=O)NCC(=O)N[C@@H](C)C(=O)N1CCC[C@H]1C(=O)N1CCC[C@H]1C(=O)N1CCC[C@H]1C(=O)N[C@@H](CO)C(N)=O)[C@@H](C)CC)C(=O)O` [compound 155], for which the EC50 in assay [1] (Table 5, cAMP, HEK-293) is 0.0025 nM; in assay [2] (Table 5, cAMP, HEK-293) it was 0.0251 nM.

`CCCCCCCCCCCCCCCCCC(=O)N[C@@H](CCC(=O)NCCCC[C@H](NC(=O)[C@H](CCC(N)=O)NC(=O)[C@H](CCCCN)NC(=O)[C@H](CO)NC(=O)[C@H](CC(C)C)NC(=O)[C@H](CC(=O)O)NC(=O)[C@H](CO)NC(=O)[C@@H](NC(=O)[C@H](Cc1ccccc1)NC(=O)[C@@H](NC(=O)CNC(=O)[C@H](CCC(N)=O)NC(=O)C(C)(C)NC(=O)[C@@H](N)Cc1c[nH]cn1)[C@@H](C)O)[C@@H](C)O)C(=O)N[C@@H](CC(=O)O)C(=O)N[C@@H](CCC(=O)O)C(=O)N[C@@H](CCC(N)=O)C(=O)N[C@@H](CCCNC(=N)N)C(=O)N[C@@H](C)C(=O)N[C@@H](CCCCN)C(=O)N[C@@H](CC(=O)O)C(=O)N[C@@H](Cc1ccccc1)C(=O)N[C@H](C(=O)N[C@@H](CCC(=O)O)C(=O)N[C@@H](Cc1c[nH]c2ccccc12)C(=O)N[C@@H](CC(C)C)C(=O)N[C@@H](CCCCN)C(=O)N[C@@H](C)C(=O)N[C@H](C)C(=O)NCC(=O)N1CCC[C@H]1C(=O)N[C@@H](CO)C(=O)N[C@@H](CO)C(=O)NCC(=O)N[C@@H](C)C(=O)N1CCC[C@H]1C(=O)N1CCC[C@H]1C(=O)N1CCC[C@H]1C(=O)N[C@@H](CO)C(N)=O)[C@@H](C)CC)C(=O)O` [compound 199]: the EC50 in assay [1] (Table 5, cAMP, HEK-293) came out at 0.0101 nM; in assay [2] (Table 5, cAMP, HEK-293), 0.0072 nM.

`CCCCCCCCCCCCCCCC(=O)NCCCC[C@H](NC(=O)[C@H](CCC(N)=O)NC(=O)[C@H](CCCCN)NC(=O)[C@H](CO)NC(=O)[C@H](CC(C)C)NC(=O)[C@H](CC(=O)O)NC(=O)[C@H](CO)NC(=O)[C@@H](NC(=O)[C@H](Cc1ccccc1)NC(=O)[C@@H](NC(=O)CNC(=O)[C@H](CCC(N)=O)NC(=O)[C@@H](CO)NC(=O)[C@@H](N)Cc1c[nH]cn1)[C@@H](C)O)[C@@H](C)O)C(=O)N[C@@H](CCC(=O)O)C(=O)N[C@@H](CO)C(=O)N[C@@H](CCCNC(=N)N)C(=O)N[C@@H](CCCNC(=N)N)C(=O)N[C@@H](C)C(=O)NC(C)(C)C(=O)N[C@@H](CC(=O)O)C(=O)N[C@@H](Cc1ccccc1)C(=O)N[C@H](C(=O)N[C@@H](CCC(=O)O)C(=O)N[C@@H](Cc1c[nH]c2ccccc12)C(=O)N[C@@H](CC(C)C)C(=O)N[C@@H](CCCCN)C(=O)N[C@@H](C)C(=O)NCC(=O)NCC(=O)N1CCC[C@H]1C(=O)N[C@@H](CO)C(=O)N[C@@H](CO)C(=O)NCC(=O)N[C@@H](C)C(=O)N1CCC[C@H]1C(=O)N1CCC[C@H]1C(=O)N1CCC[C@H]1C(=O)N[C@@H](CO)C(N)=O)[C@@H](C)CC` [compound 76]: the EC50 was 0.0449 nM in assay [1] (Table 5, cAMP, HEK-293) and 0.162 nM in assay [2] (Table 5, cAMP, HEK-293).
